system: Human acute T lymphocytic leukemia cell (Molt4); assay: Tumor cell proliferation inhibition (cell viability assay); details: Molt4 cells; 10 nM; 96 hours

Chains of the proteins cited; added tags and fusions are not shown.
UniProt Q96SW2, whole entry: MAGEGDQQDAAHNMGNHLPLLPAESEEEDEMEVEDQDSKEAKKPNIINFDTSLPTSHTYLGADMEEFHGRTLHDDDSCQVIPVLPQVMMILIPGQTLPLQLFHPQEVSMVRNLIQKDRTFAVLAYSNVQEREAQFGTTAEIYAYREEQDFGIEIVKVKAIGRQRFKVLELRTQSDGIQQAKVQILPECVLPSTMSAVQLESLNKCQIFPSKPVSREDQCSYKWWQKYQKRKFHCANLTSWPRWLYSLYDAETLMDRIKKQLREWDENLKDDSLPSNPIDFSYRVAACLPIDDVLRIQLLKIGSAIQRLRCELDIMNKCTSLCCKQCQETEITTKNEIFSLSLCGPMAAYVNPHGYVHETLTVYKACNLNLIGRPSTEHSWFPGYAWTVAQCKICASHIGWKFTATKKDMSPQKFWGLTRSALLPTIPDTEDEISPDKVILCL
UniProt P48729, whole entry: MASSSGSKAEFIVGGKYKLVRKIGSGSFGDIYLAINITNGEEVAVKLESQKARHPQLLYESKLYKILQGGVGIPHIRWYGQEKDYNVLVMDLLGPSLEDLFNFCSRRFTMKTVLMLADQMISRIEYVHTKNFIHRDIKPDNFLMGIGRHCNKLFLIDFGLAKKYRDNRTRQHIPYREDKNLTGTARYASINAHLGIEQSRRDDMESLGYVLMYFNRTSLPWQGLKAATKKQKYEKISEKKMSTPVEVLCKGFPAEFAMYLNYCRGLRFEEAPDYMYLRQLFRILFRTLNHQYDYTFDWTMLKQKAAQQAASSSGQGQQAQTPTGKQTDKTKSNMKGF
UniProt P15170, whole entry: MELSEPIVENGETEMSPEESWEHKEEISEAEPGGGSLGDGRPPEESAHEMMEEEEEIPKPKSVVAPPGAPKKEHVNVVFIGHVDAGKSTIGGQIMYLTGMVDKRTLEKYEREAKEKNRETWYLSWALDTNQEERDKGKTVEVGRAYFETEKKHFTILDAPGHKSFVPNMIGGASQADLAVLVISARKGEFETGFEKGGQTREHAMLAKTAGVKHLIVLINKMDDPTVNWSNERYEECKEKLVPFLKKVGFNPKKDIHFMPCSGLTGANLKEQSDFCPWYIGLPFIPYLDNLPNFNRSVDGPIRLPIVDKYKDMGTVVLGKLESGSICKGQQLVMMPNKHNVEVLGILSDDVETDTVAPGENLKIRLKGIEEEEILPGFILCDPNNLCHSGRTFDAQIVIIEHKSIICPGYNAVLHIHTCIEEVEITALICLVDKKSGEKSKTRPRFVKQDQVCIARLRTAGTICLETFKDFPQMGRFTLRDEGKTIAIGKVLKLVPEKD
UniProt Q13422, whole entry: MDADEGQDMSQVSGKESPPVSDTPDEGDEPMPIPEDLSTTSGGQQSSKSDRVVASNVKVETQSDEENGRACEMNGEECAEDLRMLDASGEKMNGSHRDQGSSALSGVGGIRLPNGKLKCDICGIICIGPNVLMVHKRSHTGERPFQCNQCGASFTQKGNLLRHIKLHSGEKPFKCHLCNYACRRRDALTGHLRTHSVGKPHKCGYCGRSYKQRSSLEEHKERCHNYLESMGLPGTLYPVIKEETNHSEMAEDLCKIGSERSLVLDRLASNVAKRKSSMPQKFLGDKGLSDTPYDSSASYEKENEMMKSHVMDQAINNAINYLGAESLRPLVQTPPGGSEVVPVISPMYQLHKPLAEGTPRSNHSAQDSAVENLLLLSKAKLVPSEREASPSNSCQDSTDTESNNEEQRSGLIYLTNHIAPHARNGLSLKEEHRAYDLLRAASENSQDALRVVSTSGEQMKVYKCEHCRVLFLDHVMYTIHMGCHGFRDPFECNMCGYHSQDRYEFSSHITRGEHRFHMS
UniProt Q9UKS7, whole entry: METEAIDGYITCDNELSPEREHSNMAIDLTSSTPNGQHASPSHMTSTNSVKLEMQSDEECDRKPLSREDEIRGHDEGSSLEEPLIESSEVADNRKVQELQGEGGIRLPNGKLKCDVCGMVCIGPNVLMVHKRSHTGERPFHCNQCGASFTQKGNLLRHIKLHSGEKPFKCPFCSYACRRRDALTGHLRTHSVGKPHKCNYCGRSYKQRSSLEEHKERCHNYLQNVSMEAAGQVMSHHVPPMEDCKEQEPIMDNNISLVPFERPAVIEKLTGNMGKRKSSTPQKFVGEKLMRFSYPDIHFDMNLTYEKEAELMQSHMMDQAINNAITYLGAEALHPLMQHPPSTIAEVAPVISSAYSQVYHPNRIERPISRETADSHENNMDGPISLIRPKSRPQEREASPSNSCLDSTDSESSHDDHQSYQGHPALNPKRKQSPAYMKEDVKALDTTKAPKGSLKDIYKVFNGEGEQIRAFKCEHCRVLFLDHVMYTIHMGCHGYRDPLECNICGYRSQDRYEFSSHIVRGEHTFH
UniProt Q9UKT9, whole entry: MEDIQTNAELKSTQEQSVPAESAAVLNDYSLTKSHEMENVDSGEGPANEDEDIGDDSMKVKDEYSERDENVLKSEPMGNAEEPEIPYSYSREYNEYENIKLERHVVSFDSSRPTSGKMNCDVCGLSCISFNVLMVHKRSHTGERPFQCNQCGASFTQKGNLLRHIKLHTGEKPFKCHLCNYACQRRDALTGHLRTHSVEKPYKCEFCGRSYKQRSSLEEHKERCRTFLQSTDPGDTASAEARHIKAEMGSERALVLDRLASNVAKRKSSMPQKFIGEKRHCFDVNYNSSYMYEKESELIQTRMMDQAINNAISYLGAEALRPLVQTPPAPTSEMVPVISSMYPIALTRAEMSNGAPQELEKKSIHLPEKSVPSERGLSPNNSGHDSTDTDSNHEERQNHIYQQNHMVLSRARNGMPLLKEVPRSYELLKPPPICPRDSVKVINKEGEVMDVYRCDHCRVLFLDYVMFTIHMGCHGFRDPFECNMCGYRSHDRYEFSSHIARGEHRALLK
UniProt P30291, whole entry: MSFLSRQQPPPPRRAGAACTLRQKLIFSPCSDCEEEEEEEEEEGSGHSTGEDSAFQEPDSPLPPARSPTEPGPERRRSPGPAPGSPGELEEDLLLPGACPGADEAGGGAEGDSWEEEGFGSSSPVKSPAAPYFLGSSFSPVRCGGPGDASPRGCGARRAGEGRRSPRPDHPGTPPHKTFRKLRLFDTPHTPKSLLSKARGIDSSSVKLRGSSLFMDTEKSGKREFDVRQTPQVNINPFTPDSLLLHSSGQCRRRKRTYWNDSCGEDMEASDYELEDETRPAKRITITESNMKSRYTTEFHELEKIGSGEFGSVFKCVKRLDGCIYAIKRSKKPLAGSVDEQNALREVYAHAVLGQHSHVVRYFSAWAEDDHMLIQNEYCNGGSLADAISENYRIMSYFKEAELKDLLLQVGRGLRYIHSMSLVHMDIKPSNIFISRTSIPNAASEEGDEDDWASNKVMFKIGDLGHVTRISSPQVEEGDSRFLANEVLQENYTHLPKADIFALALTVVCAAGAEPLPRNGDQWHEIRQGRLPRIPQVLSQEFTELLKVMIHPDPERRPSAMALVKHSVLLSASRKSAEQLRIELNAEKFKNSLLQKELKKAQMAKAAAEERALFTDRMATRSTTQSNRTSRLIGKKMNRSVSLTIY
UniProt Q16531, whole entry partner: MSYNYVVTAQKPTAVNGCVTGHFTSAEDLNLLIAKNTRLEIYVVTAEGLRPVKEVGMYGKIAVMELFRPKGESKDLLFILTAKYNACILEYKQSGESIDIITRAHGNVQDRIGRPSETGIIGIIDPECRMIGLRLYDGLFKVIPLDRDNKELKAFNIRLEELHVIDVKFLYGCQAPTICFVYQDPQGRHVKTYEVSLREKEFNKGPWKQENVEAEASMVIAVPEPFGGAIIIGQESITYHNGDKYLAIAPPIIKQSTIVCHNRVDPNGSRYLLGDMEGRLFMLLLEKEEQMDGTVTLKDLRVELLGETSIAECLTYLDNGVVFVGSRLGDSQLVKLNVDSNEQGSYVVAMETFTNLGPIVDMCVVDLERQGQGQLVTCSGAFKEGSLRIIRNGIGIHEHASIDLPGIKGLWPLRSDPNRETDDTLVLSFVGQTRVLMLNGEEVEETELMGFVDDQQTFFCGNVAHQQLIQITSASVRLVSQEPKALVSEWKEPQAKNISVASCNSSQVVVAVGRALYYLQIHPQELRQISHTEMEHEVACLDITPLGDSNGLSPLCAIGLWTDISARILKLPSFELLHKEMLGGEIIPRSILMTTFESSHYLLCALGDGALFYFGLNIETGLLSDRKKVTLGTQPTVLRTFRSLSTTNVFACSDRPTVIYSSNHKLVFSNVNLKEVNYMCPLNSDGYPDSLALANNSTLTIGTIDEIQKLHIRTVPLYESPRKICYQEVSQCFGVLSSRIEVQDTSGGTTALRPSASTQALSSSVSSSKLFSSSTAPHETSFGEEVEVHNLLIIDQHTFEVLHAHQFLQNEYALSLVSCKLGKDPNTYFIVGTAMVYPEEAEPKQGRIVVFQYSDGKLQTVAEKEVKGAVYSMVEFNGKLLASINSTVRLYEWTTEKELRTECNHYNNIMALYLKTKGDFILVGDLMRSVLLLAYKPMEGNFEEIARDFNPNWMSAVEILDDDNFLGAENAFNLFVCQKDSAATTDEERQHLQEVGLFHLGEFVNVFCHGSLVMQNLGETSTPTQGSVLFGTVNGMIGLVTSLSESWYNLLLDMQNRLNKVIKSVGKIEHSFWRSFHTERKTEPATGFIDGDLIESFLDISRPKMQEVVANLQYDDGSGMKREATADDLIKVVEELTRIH

Row | SMILES | Inhibition Rate at 10 nM (%)
1 | O=C1CCC(N2Cc3cc(CN4CCC(N5CCN(c6noc7cc(F)ccc67)CC5)C(F)(F)C4)c(F)cc3C2=O)C(=O)N1 (stereo not drawn) | 1c11 (80% ≤ 1c11 ≤ 100%)
2 | O=C1CCC(N2Cc3cc(CN4CCC(N5CC=C(c6cccc(Cl)c6Cl)CC5)C(F)(F)C4)ccc3C2=O)C(=O)N1 (stereo not drawn) | 1c6 (30% ≤ 1c6 < 40%)

same assay, conditions: Molt4 cells; 500 nM; 96 hours

Row | SMILES | Inhibition Rate at 500 nM (%)
3 | O=C1CCC(N2Cc3cc(CN4CCC(N5CCN(c6noc7cc(F)ccc67)CC5)C(F)(F)C4)c(F)cc3C2=O)C(=O)N1 (stereo not drawn) | 1c11 (80% ≤ 1c11 ≤ 100%)
4 | O=C1CCC(N2Cc3cc(CN4CCC(N5CC=C(c6cccc(Cl)c6Cl)CC5)C(F)(F)C4)ccc3C2=O)C(=O)N1 (stereo not drawn) | 1c11 (80% ≤ 1c11 ≤ 100%)

system: Human breast cancer cell (MCF-7); assay: as above; details: MCF-7 cells; 10 nM; 96 hours

Row | SMILES | Inhibition Rate at 10 nM (%)
5 | O=C1CCC(N2Cc3cc(CN4CCC(N5CCN(c6noc7cc(F)ccc67)CC5)C(F)(F)C4)c(F)cc3C2=O)C(=O)N1 (stereo not drawn) | 1e5 (20% ≤ 1e5 < 30%)

same assay, conditions: MCF-7 cells; 500 nM; 96 hours

Row | SMILES | Inhibition Rate at 500 nM (%)
6 | O=C1CCC(N2Cc3cc(CN4CCC(N5CCN(c6noc7cc(F)ccc67)CC5)C(F)(F)C4)c(F)cc3C2=O)C(=O)N1 (stereo not drawn) | 1e7 (40% ≤ 1e7 < 50%)

system: Human colon cancer cell (SW620); assay: as above; details: SW620 cells; 10 nM; 96 hours

Row | SMILES | Inhibition Rate at 10 nM (%)
7 | O=C1CCC(N2Cc3cc(CN4CCC(N5CCN(c6noc7cc(F)ccc67)CC5)C(F)(F)C4)c(F)cc3C2=O)C(=O)N1 (stereo not drawn) | 1d9 (70% ≤ 1d9 < 80%)
8 | O=C1CCC(N2Cc3cc(CN4CCC(N5CC=C(c6cccc(Cl)c6Cl)CC5)C(F)(F)C4)ccc3C2=O)C(=O)N1 (stereo not drawn) | 1d6 (40% ≤ 1d6 < 50%)

same assay, conditions: SW620 cells; 500 nM; 96 hours

Row | SMILES | Inhibition Rate at 500 nM (%)
9 | O=C1CCC(N2Cc3cc(CN4CCC(N5CCN(c6noc7cc(F)ccc67)CC5)C(F)(F)C4)c(F)cc3C2=O)C(=O)N1 (stereo not drawn) | 1d10 (80% ≤ 1d10 ≤ 100%)
10 | O=C1CCC(N2Cc3cc(CN4CCC(N5CC=C(c6cccc(Cl)c6Cl)CC5)C(F)(F)C4)ccc3C2=O)C(=O)N1 (stereo not drawn) | 1d7 (50% ≤ 1d7 < 60%)

system: Human mantle cell lymphoma cell line (JEKO-1); assay: as above; details: JEKO-1 cells; 10 nM; 96 hours

Row | SMILES | Inhibition Rate at 10 nM (%)
11 | O=C1CCC(N2Cc3cc(CN4CCC(N5CC=C(c6cccc(Cl)c6Cl)CC5)C(F)(F)C4)ccc3C2=O)C(=O)N1 (stereo not drawn) | 1g5 (30% ≤ 1g5 < 40%)

same assay, conditions: JEKO-1 cells; 500 nM; 96 hours

Row | SMILES | Inhibition Rate at 500 nM (%)
12 | O=C1CCC(N2Cc3cc(CN4CCC(N5CC=C(c6cccc(Cl)c6Cl)CC5)C(F)(F)C4)ccc3C2=O)C(=O)N1 (stereo not drawn) | 1g6 (40% ≤ 1g6 < 50%)

system: Human multiple myeloma cell (MM.1S); assay: as above; details: MM.1S cells; 10 nM; 96 hours

Row | SMILES | Inhibition Rate at 10 nM (%)
13 | O=C1CCC(N2Cc3cc(CN4CCC(N5CCN(c6noc7cc(F)ccc67)CC5)C(F)(F)C4)c(F)cc3C2=O)C(=O)N1 (stereo not drawn) | 1b10 (80% ≤ 1b10 ≤ 100%)
14 | O=C1CCC(N2Cc3cc(CN4CCC(N5CC=C(c6cccc(Cl)c6Cl)CC5)C(F)(F)C4)ccc3C2=O)C(=O)N1 (stereo not drawn) | 1b7 (50% ≤ 1b7 < 60%)

same assay, conditions: MM.1S cells; 500 nM; 96 hours

Row | SMILES | Inhibition Rate at 500 nM (%)
15 | O=C1CCC(N2Cc3cc(CN4CCC(N5CCN(c6noc7cc(F)ccc67)CC5)C(F)(F)C4)c(F)cc3C2=O)C(=O)N1 (stereo not drawn) | 1b10 (80% ≤ 1b10 ≤ 100%)
16 | O=C1CCC(N2Cc3cc(CN4CCC(N5CC=C(c6cccc(Cl)c6Cl)CC5)C(F)(F)C4)ccc3C2=O)C(=O)N1 (stereo not drawn) | 1b10 (80% ≤ 1b10 ≤ 100%)

system: Human myeloid monocytic leukemia cell (MV-4-11); assay: as above; details: MV-4-11 cells; 10 nM; 96 hours

Row | SMILES | Inhibition Rate at 10 nM (%)
17 | O=C1CCC(N2Cc3cc(CN4CCC(N5CCN(c6noc7cc(F)ccc67)CC5)C(F)(F)C4)c(F)cc3C2=O)C(=O)N1 (stereo not drawn) | 1a10 (80% ≤ 1a10 < 100%)
18 | O=C1CCC(N2Cc3cc(CN4CCC(N5CC=C(c6cccc(Cl)c6Cl)CC5)C(F)(F)C4)ccc3C2=O)C(=O)N1 (stereo not drawn) | 1a5 (30% ≤ 1a5 ≤ 40%)

same assay, conditions: MV-4-11 cells; 500 nM; 96 hours

Row | SMILES | Inhibition Rate at 500 nM (%)
19 | O=C1CCC(N2Cc3cc(CN4CCC(N5CCN(c6noc7cc(F)ccc67)CC5)C(F)(F)C4)c(F)cc3C2=O)C(=O)N1 (stereo not drawn) | 1a11 (100% ≤ 1a11 ≤ 105%)
20 | O=C1CCC(N2Cc3cc(CN4CCC(N5CC=C(c6cccc(Cl)c6Cl)CC5)C(F)(F)C4)ccc3C2=O)C(=O)N1 (stereo not drawn) | 1a10 (80% ≤ 1a10 < 100%)

molecular target: CRBN (Homo sapiens, UniProt Q96SW2); assay: CRBN binding affinity by HTRF (CEREBLON BINDING kit); details: read-out: HTRF IC50; human Cereblon WT GST-tagged protein; 3 hours at room temperature

Row | SMILES | IC50 [nM]
21 | O=C1CCC(N2Cc3cc(CN4CCC(N5CC=C(c6cccc(Cl)c6Cl)CC5)C(F)(F)C4)ccc3C2=O)C(=O)N1 (stereo not drawn) | 100 to 500

molecular target: CK1α (Homo sapiens, UniProt P48729+Q96SW2); assay: Western blot assay of substrate protein degradation in hPBMCs; details: 24 hours treatment, compounds at 50 nM and 500 nM (concentration behind the class not stated)

Row | SMILES | substrate protein remaining % (CK1a)
22 | O=C1CCC(N2Cc3cc(CN4CCC(N5CCN(c6noc7cc(F)ccc67)CC5)C(F)(F)C4)c(F)cc3C2=O)C(=O)N1 (stereo not drawn) | A (0% ≤ substrate protein remaining % ≤ 80%)
23 | O=C1CCC(N2Cc3cc(CN4CCC(N5CC=C(c6cccc(Cl)c6Cl)CC5)C(F)(F)C4)ccc3C2=O)C(=O)N1 (stereo not drawn) | B (80%< substrate protein remaining %≤ 100%)

molecular target: GSPT1 (Homo sapiens, UniProt P15170+Q96SW2); assay: as above; details: 24 hours treatment, compounds at 50 nM and 500 nM (concentration behind the class not stated)

Row | SMILES | substrate protein remaining % (GSPT1)
24 | O=C1CCC(N2Cc3cc(CN4CCC(N5CCN(c6noc7cc(F)ccc67)CC5)C(F)(F)C4)c(F)cc3C2=O)C(=O)N1 (stereo not drawn) | A (0% ≤ substrate protein remaining % ≤ 80%)
25 | O=C1CCC(N2Cc3cc(CN4CCC(N5CC=C(c6cccc(Cl)c6Cl)CC5)C(F)(F)C4)ccc3C2=O)C(=O)N1 (stereo not drawn) | A (0% ≤ substrate protein remaining % ≤ 80%)

molecular target: IKZF1 (Homo sapiens, UniProt Q13422+Q96SW2); assay: as above; details: 24 hours treatment, compounds at 50 nM and 500 nM (concentration behind the class not stated)

Row | SMILES | substrate protein remaining % (IKZF 1)
26 | O=C1CCC(N2Cc3cc(CN4CCC(N5CCN(c6noc7cc(F)ccc67)CC5)C(F)(F)C4)c(F)cc3C2=O)C(=O)N1 (stereo not drawn) | A (0% ≤ substrate protein remaining % ≤ 80%)
27 | O=C1CCC(N2Cc3cc(CN4CCC(N5CC=C(c6cccc(Cl)c6Cl)CC5)C(F)(F)C4)ccc3C2=O)C(=O)N1 (stereo not drawn) | B (80%< substrate protein remaining %≤ 100%)

molecular target: IKZF2 (Homo sapiens, UniProt Q96SW2+Q9UKS7); assay: as above; details: 24 hours treatment, compounds at 50 nM and 500 nM (concentration behind the class not stated)

Row | SMILES | substrate protein remaining % (IKZF2)
28 | O=C1CCC(N2Cc3cc(CN4CCC(N5CCN(c6noc7cc(F)ccc67)CC5)C(F)(F)C4)c(F)cc3C2=O)C(=O)N1 (stereo not drawn) | A (0% ≤ substrate protein remaining % ≤ 80%)
29 | O=C1CCC(N2Cc3cc(CN4CCC(N5CC=C(c6cccc(Cl)c6Cl)CC5)C(F)(F)C4)ccc3C2=O)C(=O)N1 (stereo not drawn) | B (80%< substrate protein remaining %≤ 100%)

molecular target: IKZF3 (Homo sapiens, UniProt Q96SW2+Q9UKT9); assay: as above; details: 24 hours treatment, compounds at 50 nM and 500 nM (concentration behind the class not stated)

Row | SMILES | substrate protein remaining % (IKZF3)
30 | O=C1CCC(N2Cc3cc(CN4CCC(N5CCN(c6noc7cc(F)ccc67)CC5)C(F)(F)C4)c(F)cc3C2=O)C(=O)N1 (stereo not drawn) | A (0% ≤ substrate protein remaining % ≤ 80%)
31 | O=C1CCC(N2Cc3cc(CN4CCC(N5CC=C(c6cccc(Cl)c6Cl)CC5)C(F)(F)C4)ccc3C2=O)C(=O)N1 (stereo not drawn) | B (80%< substrate protein remaining %≤ 100%)

molecular target: WEE1 (Homo sapiens, UniProt P30291+Q96SW2); assay: as above; details: 24 hours treatment, compounds at 50 nM and 500 nM (concentration behind the class not stated)

Row | SMILES | substrate protein remaining % (WEE1)
32 | O=C1CCC(N2Cc3cc(CN4CCC(N5CCN(c6noc7cc(F)ccc67)CC5)C(F)(F)C4)c(F)cc3C2=O)C(=O)N1 (stereo not drawn) | A (0% ≤ substrate protein remaining % ≤ 80%)
33 | O=C1CCC(N2Cc3cc(CN4CCC(N5CC=C(c6cccc(Cl)c6Cl)CC5)C(F)(F)C4)ccc3C2=O)C(=O)N1 (stereo not drawn) | B (80%< substrate protein remaining %≤ 100%)
